Like-named read-outs stand apart in the source and are kept apart here.
Tests used:
[1] = pH 3
[2] = Determination of pKa values by titration in 0.5% TRITON-X 100; settings: lipid in 0.5% TRITON-X 100 in water, titrated with 20 mM NaOH from pH 3.0

| Substance | pKa [1] | pKa [2] |
| --- | --- | --- |
| 2-histamine-(1,2-dipalmitoyl-sn-glycero-3-hydroxyphosphoryloxy)ethyl [#30] | 6.7 |  |
| histamine-dipalmitoylglycerol succinate [#59] |  | 5.5 |
